Sampled rows, rich in hits. Any-hit rate of the full collection: about 1.7%.
CDK5 inh: inhibitors of human CDK5/p35 kinase. 330,000 tested, 0.01% active. inhibition, % at 10 µM. AID 488839. Recombinant CDK5/p35, ADP-Glo luminescence, 60 min. Q00535+Q15078;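 active = highest replicate inhibition of at least 50% and at least 75% of replicates reaching 50%; inconclusive = only one of the two criteria met; inactive = both criteria failed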;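 also: plate controls were DMSO neutral control for no effect and GW8510 at 10 µM for full effect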
CAL PDZ FP-1: inhibitors of human CAL PDZ peptide binding; Q9HD26; purified CAL PDZ, TMR-peptide fluorescence polarization, 1 h; inhibition, % at 20 µM; 330,000 tested, 0.02% active;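 active = highest replicate inhibition of at least 40%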;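 also: plate controls were DMSO neutral control wells for no effect and unlabeled competitor peptide control wells for full effect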
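Read-out basis: mP drop reported as inhibition | Assay system: Tagged CAL PDZ protein CerCALP, purified | Benchmarks: Unlabelled peptide for full inhibition, DMSO wells as neutral | Schedule: 1 h incubation at room temperature before polarization reading | Buffer or medium: Sodium phosphate/NaCl buffer pH 7.4 with TCEP, IgG, Thesit | Doses: Single point, 20 µM | Measured by: Fluorescence polarization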
DYRK1A inh: blocks rat Dyrk1A kinase activity | Q63470 | ADP-Glo luminescence, NFATc1 peptide | inhibition, % at 12.5 µM | 310,000 tested, 0.43% active; in the data active = inhibition above about 50%;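 also: plate controls were vehicle with enzyme for no effect and no enzyme for full effect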
dFosB activator: activators of mouse delta FosB homodimer; P13346; purified delta FosB, TAMRA-CDK5 oligo fluorescence polarization; percent of positive-control signal above neutral wells; activation, % at 25 µM; 340,000 tested, 0.99% active; AID 493131;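 active = mean activation above about 17%, with every replicate also reaching it, limit read from the data, passing the limit was not always enough; inconclusive = only one of the two conditions met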
CAL PDZ FP-2: inhibitors of human CAL PDZ peptide binding | AID 602252 | Q9HD26 | 300,000 tested, 0.92% active | inhibition, % at 24.9 µM | purified CAL PDZ, TMR-peptide fluorescence polarization, 1 h;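 active = mean inhibition of at least 30% with at least half of replicates also reaching 30%; inconclusive = no clear call, values can overlap the other calls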;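 also: 0% = DMSO neutral control and 100% = excess unlabeled competitor peptide PRC23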
Yeast UUG start: yeast start codon fidelity modulation. S. cerevisiae UUG-firefly luciferase reporter, luminescence/redox ratio. activity score, % at 18.7 µM. 0.13% of 350,000 active;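 active = replicate mean at a twofold rise or more, about +100% in these data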;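 also: firefly luciferase made from a UUG start codon reports start codon fidelity; reporter light over untreated wells divided by growth signal over untreated wells; some hits fall short of that in this replicate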
* = called active by the depositor; u = inconclusive; x = no result given.

Short forms: A = CDK5 inh; B = CAL PDZ FP-1; C = DYRK1A inh; D = dFosB activator; E = CAL PDZ FP-2; F = Yeast UUG start
> Cc1cccc(NC(=O)CSc2nc(=O)n(CCCN3CCOCC3)c3c2CCCC3)c1
  A = -0.1; B = -1.3; C = 1.2; D = -1.3; E = 47.8*; F = -9.4
> C[C@H]1CN([C@@H](C)CO)C(=O)c2cc(C#CCN(C)C)cnc2O[C@H]1CN(C)S(C)(=O)=O
  A = x; B = x; C = x; D = x; E = x; F = 5.7
> O=C(Nc1ccc(N2CCN(Cc3ccccc3)CC2)cc1)c1ccccc1[N+](=O)[O-]
  A = 0.7; B = -1.9; C = 0.0; D = -8.8; E = -0.2; F = x
> O=C(Nc1ccc(N2CCCC2)cc1)c1ccccc1[N+](=O)[O-]
  A = 2.1; B = 0.1; C = -3.1; D = 24.9*; E = -1.7; F = -2.7
> CC(C)c1ccc(NC(=O)c2cc(Br)ccc2Br)cc1
  A = 0.1; B = -0.3; C = -0.9; D = 1.9; E = 36.8*; F = x
> Cc1ccc(C(=O)Nc2ccc(N3CCCC3)cc2)c(C)c1
  A = 1.6; B = -2.1; C = 0.0; D = 49.0*; E = 7.5; F = x
> Cc1ccccc1C(=O)Nc1ccc(N2CCCC2)cc1
  A = -2.2; B = -16.6; C = 16.5; D = -0.9; E = 3.1; F = -11.2
> O=C(Nc1ccc(N2CCCC2)cc1)c1cc(Br)ccc1Cl
  A = -0.1; B = 0.8; C = 13.8; D = 52.2*; E = x; F = 1.3
> C[C@@H]1CN([C@H](C)CO)C(=O)c2cc(C#CC3CCCC3)cnc2O[C@H]1CN(C)C(=O)c1ccncc1
  A = x; B = x; C = x; D = x; E = x; F = -2.8
> C/C=C/c1ccc([C@H]2[C@@H](CO)N3CCCCN(S(=O)(=O)c4cccc(C)c4)C[C@@H]23)cc1
  A = x; B = x; C = x; D = x; E = x; F = 9.6
> CNC[C@H]1Oc2ncc(-c3cccc(F)c3)cc2C(=O)N([C@@H](C)CO)C[C@H]1C
  A = x; B = x; C = x; D = x; E = x; F = 10.4
> Cc1ccc(S(=O)(=O)NN2C(=O)/C(=C/c3cccc(F)c3)SC2=S)cc1
  A = -0.3; B = -5.7; C = -7.6; D = -13.7; E = 33.1*; F = 1.9
> COc1cc(/C=C2\SC(=S)N(NC(=O)c3ccncc3)C2=O)ccc1O
  A = 1.7; B = -1.2; C = 29.5; D = 33.5*; E = -8.8; F = x
> COc1cc(/C=C2\SC(=S)N(NS(=O)(=O)c3ccc(C)cc3)C2=O)ccc1O
  A = 1.1; B = -6.3; C = 11.2; D = 13.7; E = -9.1; F = x
> COc1cc(/C=C2\SC(=S)N(NS(=O)(=O)c3ccc(C)cc3)C2=O)cc(OC)c1OC
  A = 2.0; B = -0.3; C = -15.7; D = -15.2; E = -0.4; F = -11.6

New compounds follow:
Short forms: A = CDK5 inh; B = CAL PDZ FP-1; C = DYRK1A inh; D = dFosB activator; E = CAL PDZ FP-2; F = Yeast UUG start
> COc1cc(/C=C2\SC(=S)N(NS(=O)(=O)c3ccccc3)C2=O)ccc1O
  A = 0.0; B = -1.6; C = 12.8; D = 20.9*; E = -10.5; F = -22.7
> COc1cc(/C=C2\SC(=S)N(NC(=O)c3ccc(O)c(OC)c3)C2=O)ccc1O
  A = 1.5; B = -3.8; C = 42.1; D = u; E = -24.5; F = -9.5
> COc1cc(/C=C2\SC(=S)N(C(C(=O)O)c3ccccc3)C2=O)ccc1O (configuration not stated)
  A = 2.6; B = -3.1; C = 15.2; D = 23.0*; E = -12.6; F = -3.4
> Cn1cnc(CCNC(=O)C[C@@H]2CC[C@H]3[C@@H](COC[C@H](O)CN3C(=O)Nc3ccc(F)cc3)O2)c1
  A = x; B = x; C = x; D = x; E = x; F = -8.1
> COc1cccc(S(=O)(=O)N[C@H]2CC[C@@H](CC(=O)NC3CCC3)O[C@@H]2CO)c1
  A = x; B = x; C = x; D = x; E = x; F = -12.9
> CCC(=NCCc1ccc(OC)c(OC)c1)C1=C(O)CC(C)(C)CC1=O
  A = -2.4; B = -3.0; C = -6.2; D = 0.8; E = -2.0; F = x
> CCC(=NCCc1ccccc1)C1=C(O)CCC1=O
  A = 1.1; B = -0.7; C = -3.7; D = 2.2; E = 64.4*; F = -7.6
> CC1(C)CC(NC(=O)C2CCN(S(=O)(=O)c3ccc(Cl)c(C(F)(F)F)c3)CC2)CC(C)(C)N1
  A = -0.8; B = 0.3; C = -0.7; D = 6.7; E = 57.7*; F = -6.9
> O=C(NC[C@@H]1[C@@H](c2ccccc2)[C@H](CO)N1Cc1ccccn1)C1CC1
  A = x; B = x; C = x; D = x; E = x; F = -17.7
> Nc1ccc2cc3[nH]c4cc(N)ccc4c3nc2c1
  A = 3.6; B = 3.0; C = -0.4; D = 67.2*; E = -2.0; F = x
> CCCn1nnc(NC(=O)c2ccc([N+](=O)[O-])cc2Cl)n1
  A = 0.9; B = -2.1; C = 1.4; D = -1.5; E = -1.2; F = x
> CCCCn1nnc(NC(=O)c2ccc([N+](=O)[O-])cc2Cl)n1
  A = -0.5; B = -0.2; C = -1.5; D = -5.0; E = 67.3*; F = 0.3
> NC(=O)c1ccc(-c2nnc(Nc3ccc(S(N)(=O)=O)cc3)c3ccccc23)cc1
  A = 0.9; B = x; C = -7.9; D = 14.9; E = 65.5*; F = 2.5
> Cc1noc(C)c1NC(=O)N(C)C[C@H]1Oc2ccc(NC(=O)Nc3cccc4ccccc34)cc2C(=O)N([C@H](C)CO)C[C@H]1C
  A = x; B = x; C = x; D = x; E = x; F = -18.7
> O=S(=O)(c1ccc(F)cc1)N1CC[C@@H]2[C@H](CO)Nc3ccc(-c4ccccc4F)cc3[C@@H]21
  A = x; B = x; C = x; D = x; E = x; F = -8.9

The final two records of the part above open the next one:
Short forms: A = CDK5 inh; B = CAL PDZ FP-1; C = DYRK1A inh; D = dFosB activator; E = CAL PDZ FP-2; F = Yeast UUG start
> Cc1noc(C)c1NC(=O)N(C)C[C@H]1Oc2ccc(NC(=O)Nc3cccc4ccccc34)cc2C(=O)N([C@H](C)CO)C[C@H]1C
  A = x; B = x; C = x; D = x; E = x; F = -18.7
> O=S(=O)(c1ccc(F)cc1)N1CC[C@@H]2[C@H](CO)Nc3ccc(-c4ccccc4F)cc3[C@@H]21
  A = x; B = x; C = x; D = x; E = x; F = -8.9
> Cc1ccc(Cl)c(NC(=O)COC(=O)C2CCC2)c1Cl
  A = 0.1; B = -0.7; C = -1.5; D = 4.8; E = 54.7*; F = 6.2
> Cc1ccc(S(=O)(=O)N2CCC(C(=O)OCC(=O)Nc3cc(S(C)(=O)=O)ccc3Cl)CC2)cc1C
  A = 0.1; B = 6.0; C = -1.6; D = -4.2; E = 40.4*; F = 24.3
> CCCn1cnc2c(SCCc3ccccc3)nc(N)nc21
  A = -0.5; B = x; C = -0.8; D = -6.9; E = 53.9*; F = -18.4
> CCCCn1cnc2c(SCCc3ccccc3)nc(N)nc21
  A = 0.4; B = -1.4; C = 1.5; D = -6.1; E = -4.4; F = -18.8
> N#CCCN(C(=O)COC(=O)c1ccc(S(=O)(=O)N2CCOCC2)cc1)c1ccccc1
  A = -0.7; B = -1.3; C = x; D = -9.5; E = x; F = -14.5
> CN(C(=O)COC(=O)c1ccc(S(=O)(=O)N2CCOCC2)cc1)c1ccccc1
  A = -0.3; B = -0.2; C = -0.8; D = 6.6; E = 44.8*; F = 0.0
> O=C(CN1CCN(C(=O)C2CCCO2)CC1)Nc1ccc(Cl)cc1 (configuration not stated)
  A = 1.5; B = -0.7; C = 2.8; D = -1.1; E = 33.4*; F = 0.7
> Cc1cc2cc(C(c3nnnn3Cc3ccccc3)N3CCc4ccccc43)c(=O)[nH]c2cc1C (configuration not stated)
  A = 0.2; B = -0.5; C = -2.9; D = -10.3; E = -4.2; F = 25.5
> Cc1ccc2cc(C(c3nnnn3Cc3ccccc3)N3CCc4ccccc43)c(=O)[nH]c2c1C (configuration not stated)
  A = 1.8; B = 0.2; C = x; D = -2.1; E = 81.1*; F = -12.1
> Cc1ccc(C(=O)CSc2nnc(C3CC3)n2C2CC2)s1
  A = -1.1; B = -0.4; C = -4.6; D = 0.2; E = 63.0*; F = -16.6
> C[C@@H]1CCCCO[C@H](CN(C)Cc2ccc3c(c2)OCO3)[C@@H](C)CN([C@H](C)CO)C(=O)c2cc(NS(=O)(=O)c3ccccc3)ccc2O1
  A = x; B = x; C = x; D = x; E = x; F = 3.0
> Cc1cc(C)c2c(c1)/C(=N/NC(=O)c1ccc(O)cc1)CCC2
  A = -0.7; B = 0.3; C = 6.2; D = -18.2; E = 68.6*; F = x
> CCNC(=O)C[C@H]1CC[C@@H]2[C@H](COC[C@@H](O)CN2C(=O)C2CCOCC2)O1
  A = x; B = x; C = x; D = x; E = x; F = -7.7
> CCC(=NC)C1=C(O)CC(c2ccccc2)CC1=O (configuration not stated)
  A = 0.0; B = x; C = -3.8; D = -11.1; E = 70.7*; F = 5.9
> COc1ccc(NC(=O)Nc2ccc3c(c2)CC(=O)N([C@H](C)CO)C[C@@H](C)[C@@H](CN(C)Cc2ccc(Cl)c(Cl)c2)O3)cc1
  A = x; B = x; C = x; D = x; E = x; F = 3.9
> COc1ccc(NC(=O)CSc2nnnn2-c2ccc(OC)cc2)cc1
  A = 0.3; B = -2.3; C = -3.5; D = 2.0; E = 0.1; F = -21.4
> CCOc1ccc(NC(=O)CSc2nnnn2-c2ccc(C(N)=O)cc2)cc1
  A = 2.2; B = x; C = -3.0; D = 7.8; E = 66.4*; F = -3.0

Two of these compounds, reformatted:
Compound	CDK5 inh	CAL PDZ FP-1	DYRK1A inh	dFosB activator	CAL PDZ FP-2	Yeast UUG start
CCC(=NCCc1ccccc1)C1=C(O)CCC1=O	1.1	-0.7	-3.7	2.2	64.4*	-7.6
CC1(C)CC(NC(=O)C2CCN(S(=O)(=O)c3ccc(Cl)c(C(F)(F)F)c3)CC2)CC(C)(C)N1	-0.8	0.3	-0.7	6.7	57.7*	-6.9
